The values that follow come from PMC11096129 (Nature, 2024).

By UniProt entry, the sequences of proteins in these tests, tags left out.
replication protein-A (RPA), recombinant human heterotrimer of RPA1, RPA2 and 10xHis-RPA3, UniProt P15927, whole entry, chain 2 of 3: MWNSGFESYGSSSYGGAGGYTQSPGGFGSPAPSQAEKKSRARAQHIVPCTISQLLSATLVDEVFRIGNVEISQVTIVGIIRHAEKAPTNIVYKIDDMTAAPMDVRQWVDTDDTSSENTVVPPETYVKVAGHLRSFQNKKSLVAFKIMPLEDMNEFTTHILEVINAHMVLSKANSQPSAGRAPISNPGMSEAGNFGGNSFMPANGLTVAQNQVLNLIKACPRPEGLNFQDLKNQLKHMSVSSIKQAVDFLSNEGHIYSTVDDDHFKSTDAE
replication protein-A (RPA), recombinant human heterotrimer of RPA1, RPA2 and 10xHis-RPA3, UniProt P35244, whole entry, chain 3 of 3: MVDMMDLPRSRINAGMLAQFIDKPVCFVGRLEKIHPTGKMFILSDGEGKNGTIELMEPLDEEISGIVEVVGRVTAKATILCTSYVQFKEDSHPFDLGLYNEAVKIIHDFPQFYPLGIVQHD

In this test the target is T1, replication protein-A (RPA), recombinant human heterotrimer of RPA1, RPA2 and 10xHis-RPA3 (human, UniProt P27694 1-616; P15927 1-270; P35244 1-121).
T1 construct: RPA1, human, full-length protein; RPA2, human, full-length protein; RPA3, human, full-length protein; The tag is printed as 10xHis-RPA3; RPA was detected by anti-His on the peptide array; source: Sf9 (baculovirus, biGBac pBIG1a), purified (Ni-NTA, Resource Q, Superdex 200); copies: + +
Description: pull-down; streptavidin beads pulling on biotin-labelled 40-nt ssDNA (SSA4, photo-cleavable linker, 0.1 µM) pre-bound by RPA (0.15 µM), then RAD52 (0.15 µM); 25 mM HEPES pH 8.0, 200 mM KOAc, 2 mM Mg(OAc)2, 0.01% Tween-20; Coomassie gel; the bait is the ssDNA. The settings on record: both partners purified.

B1: RAD52 open ring (RAD52-OR), recombinant human RAD52, Resource S peak 1 (natural protein, UniProt P43351 1-418, looked up)
chain: MSGTEEAILGGRDSHPAAGGGSVLCFGQCQYTAEEYQAIQKALRQRLGPEYISSRMAGGGQKVCYIEGHRVINLANEMFGYNGWAHSITQQNVDFVDLNNGKFYVGVCAFVRVQLKDGSYHEDVGYGVSEGLKSKALSLEKARKEAVTDGLKRALRSFGNALGNCILDKDYLRSLNKLPRQLPLEVDLTKAKRQDLEPSVEEARYNSCRPNMALGHPQLQQVTSPSRPSHAVIPADQDCSSRSLSSSAVESEATHQRKLRQKQLQQQFRERMEKQQVRVSTPSAEKSEAAPPAPPVTHSTPVTVSEPLLEKDFLAGVTQELIKTLEDNSEKWAVTPDAGDGVVKPSSRADPAQTSDTLALNNQMVTQNRTPHSVCHQKPQAKSGSWDLQTYSADQRTTGNWESHRKSQDMKKRKYDPS
notes: codon-optimised cDNA in pET100 with the 6xHis, T7 and Xpress tags removed by inverse PCR; the intact mass approximated RAD52 less the N-terminal methionine; At most ten subunits; open rings with 9, 7-8, 6 and 5 subunits were also seen, and the oligomeric state depends on concentration; also called RAD52 open rings; wild-type RAD52; source: E. coli BL21 Star (DE3), purified (HiTrap SP, HiTrap Q …)
For the molecule B1, the binding result is given as “binds”.
